Assay results taken from US9102669B2, “Substituted piperidinyl-pyridazinyl derivatives useful as SCD 1 inhibitors” (Janssen Pharmaceutica NV, priority 2011, dated 2015).

By UniProt entry, the sequences of proteins in these tests, tags left out. Where a name states a change or a piece, a line headed by the entry shows the natural chain unless it says otherwise.
UniProt P07308: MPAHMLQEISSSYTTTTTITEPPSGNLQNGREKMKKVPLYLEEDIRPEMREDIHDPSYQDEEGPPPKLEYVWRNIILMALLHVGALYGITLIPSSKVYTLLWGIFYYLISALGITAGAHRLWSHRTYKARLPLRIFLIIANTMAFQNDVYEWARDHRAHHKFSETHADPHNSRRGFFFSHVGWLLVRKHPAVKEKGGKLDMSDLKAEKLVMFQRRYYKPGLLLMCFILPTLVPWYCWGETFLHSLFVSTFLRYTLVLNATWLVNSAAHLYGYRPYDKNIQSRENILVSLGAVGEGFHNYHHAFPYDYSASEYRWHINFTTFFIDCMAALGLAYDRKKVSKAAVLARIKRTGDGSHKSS
UniProt O00767: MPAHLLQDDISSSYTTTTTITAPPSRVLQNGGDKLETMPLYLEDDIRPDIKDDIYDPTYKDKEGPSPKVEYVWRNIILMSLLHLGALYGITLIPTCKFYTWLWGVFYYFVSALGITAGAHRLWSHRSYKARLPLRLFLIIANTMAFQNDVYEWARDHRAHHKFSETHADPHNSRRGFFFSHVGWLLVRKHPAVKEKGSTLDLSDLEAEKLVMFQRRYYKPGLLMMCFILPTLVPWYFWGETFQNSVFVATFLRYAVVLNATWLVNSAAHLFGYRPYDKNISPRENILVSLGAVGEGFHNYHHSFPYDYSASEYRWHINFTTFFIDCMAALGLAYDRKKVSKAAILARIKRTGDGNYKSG

Assays:
SCD1 [1] = target: SCD1 (Rattus norvegicus (Rat), UniProt P07308); test: SCD1 enzymatic assay in rat liver microsomes (RLM); type: biochemical
SCD1 [2] = target: SCD1 (Homo sapiens (Human), UniProt O00767); test: SCD1 13C-palmitic acid assay in A431 cells; type: cell-based; conditions: read-out: A431 cells 13C-PA IC50

| SMILES | IC50 (SCD1 [1]) [nM] | IC50 (SCD1 [2]) [nM] |
| --- | --- | --- |
| Cn1cc(-c2ccc(N3CCC(n4ccc5ccc(F)cc54)CC3)nn2)cn1 [Compound #63, 6-fluoro-1-(1-(6-(1-methyl-1H-pyrazol-4-yl)pyridazin-3-yl)piperidin-4-yl)-1H-indole] | 23 |  |
| Cn1cc(-c2ccc(N3CCC(N4CCc5ccc(C(F)(F)F)cc54)CC3)nn2)cn1 [Compound #60, 1-(1-(6-(1-methyl-1H-pyrazol-4-yl)pyridazin-3-yl)piperidin-4-yl)-6-(trifluoromethyl)indoline] |  | 42 |
